Experimental data published in paper PMC2866327, “Designed Inhibitors of Insulin-Degrading Enzyme Regulate the Catabolism and Activity of Insulin” (PLoS ONE, 2010).

Chains of the proteins cited; added tags and fusions are not shown.
UniProt P14735, whole entry: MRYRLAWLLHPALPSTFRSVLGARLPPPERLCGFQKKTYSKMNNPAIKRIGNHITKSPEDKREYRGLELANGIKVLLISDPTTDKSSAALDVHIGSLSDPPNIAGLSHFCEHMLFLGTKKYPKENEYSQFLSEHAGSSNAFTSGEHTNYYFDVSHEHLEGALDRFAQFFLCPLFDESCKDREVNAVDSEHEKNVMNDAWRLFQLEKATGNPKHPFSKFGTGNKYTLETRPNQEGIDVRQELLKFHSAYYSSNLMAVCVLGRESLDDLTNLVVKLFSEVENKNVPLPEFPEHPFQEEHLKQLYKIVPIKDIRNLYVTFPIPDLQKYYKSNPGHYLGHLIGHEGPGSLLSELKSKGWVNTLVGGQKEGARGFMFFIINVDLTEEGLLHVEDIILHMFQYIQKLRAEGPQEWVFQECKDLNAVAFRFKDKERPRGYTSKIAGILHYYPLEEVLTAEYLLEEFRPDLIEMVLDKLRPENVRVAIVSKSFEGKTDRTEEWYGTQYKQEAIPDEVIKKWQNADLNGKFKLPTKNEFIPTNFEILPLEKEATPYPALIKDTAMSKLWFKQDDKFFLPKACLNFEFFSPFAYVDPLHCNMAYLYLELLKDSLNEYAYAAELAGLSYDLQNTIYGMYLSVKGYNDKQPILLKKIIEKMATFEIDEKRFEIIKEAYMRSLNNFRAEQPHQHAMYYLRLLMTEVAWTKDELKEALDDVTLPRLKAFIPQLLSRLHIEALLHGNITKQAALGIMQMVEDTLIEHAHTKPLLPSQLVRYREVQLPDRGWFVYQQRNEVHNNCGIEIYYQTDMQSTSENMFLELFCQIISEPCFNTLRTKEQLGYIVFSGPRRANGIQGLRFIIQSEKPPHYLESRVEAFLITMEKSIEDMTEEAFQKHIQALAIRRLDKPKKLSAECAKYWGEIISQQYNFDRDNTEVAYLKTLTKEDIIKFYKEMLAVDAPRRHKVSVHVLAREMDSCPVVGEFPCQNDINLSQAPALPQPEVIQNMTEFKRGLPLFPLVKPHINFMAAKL

Tests used:
recombinant human IDE = recombinant human IDE (Homo sapiens, UniProt P14735); test: In vitro IDE enzymatic assay (hydrolysis of FRET1, SP1, FAβB, 125I-insulin or insulin by HTRF); conditions: read-out: IDE IC50; commercially available hydroxamic acids
MMP-9 = conditions: read-out: target IC50; best known target MMP-9; no reference given; cited from earlier work

pIC50 (recombinant human IDE) | Compound | pIC50 (MMP-9)
< 4.00 | CCN(CC)Cc1cc(C)c(N(Cc2ccccc2)S(=O)(=O)c2ccc(OC)cc2)c(C(=O)NO)c1 | –
< 4.00 | COc1ccc(S(=O)(=O)N2CC(C)(C)CN(S(=O)(=O)c3ccc(OC)cc3)C2C(=O)NO)cc1 | 8.57

pIC50: −log10 of the molar value.
